Assay results: PubChem BioAssay (NCI)
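Cells were grown in 96-well plates and exposed to each compound for 48 hours at five concentrations; endpoints were interpolated linearly between bracketing concentrations, or set to the highest concentration if not reached. Abbreviation: GI50, concentration required for 50% inhibition of growth. TGI: total growth inhibition.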

Columns and labels:
Assay in all cases: NCI tumour cell line growth inhibition, 48 h
A498 renal = system: A498 renal
A549 NSCLC = system: A549 NSCLC
ACHN renal = system: ACHN renal
BT-549 breast = system: BT-549 breast
CAKI-1 renal = system: CAKI-1 renal
COLO 205 colon = system: COLO 205 colon
DU-145 prostate = system: DU-145 prostate
EKVX NSCLC = system: EKVX NSCLC
HCC-2998 colon = system: HCC-2998 colon
HCT-116 colon = system: HCT-116 colon
HCT-15 colon = system: HCT-15 colon
HOP-62 NSCLC = system: HOP-62 NSCLC
HOP-92 NSCLC = system: HOP-92 NSCLC
HS 578T breast = system: HS 578T breast
IGROV1 ovarian = system: IGROV1 ovarian
K-562 leukemia = system: K-562 leukemia
KM12 colon = system: KM12 colon
M14 melanoma = system: M14 melanoma
MALME-3M melanoma = system: MALME-3M melanoma
MCF7 breast = system: MCF7 breast
MDA-MB-231 breast = system: MDA-MB-231 breast
MDA-MB-435 = system: MDA-MB-435
MDA-N = system: MDA-N
MOLT-4 leukemia = system: MOLT-4 leukemia
NCI-H23 lung = system: NCI-H23 lung
NCI-H322M lung = system: NCI-H322M lung
NCI-H460 lung = system: NCI-H460 lung
NCI-H522 lung = system: NCI-H522 lung
NCI/ADR-RES ovarian = system: NCI/ADR-RES ovarian
OVCAR-3 ovarian = system: OVCAR-3 ovarian
OVCAR-4 ovarian = system: OVCAR-4 ovarian
OVCAR-5 ovarian = system: OVCAR-5 ovarian
OVCAR-8 ovarian = system: OVCAR-8 ovarian
PC-3 prostate = system: PC-3 prostate
RPMI-8226 leukemia = system: RPMI-8226 leukemia
RXF 393 renal = system: RXF 393 renal
SF-268 CNS = system: SF-268 CNS
SF-295 CNS = system: SF-295 CNS
SK-MEL-2 melanoma = system: SK-MEL-2 melanoma
SK-MEL-28 melanoma = system: SK-MEL-28 melanoma
SK-MEL-5 melanoma = system: SK-MEL-5 melanoma
SK-OV-3 ovarian = system: SK-OV-3 ovarian
SNB-19 CNS = system: SNB-19 CNS
SNB-75 CNS = system: SNB-75 CNS
TK-10 renal = system: TK-10 renal
U251 CNS = system: U251 CNS
UACC-257 melanoma = system: UACC-257 melanoma
UACC-62 melanoma = system: UACC-62 melanoma
UO-31 renal = system: UO-31 renal

## CCOP(=O)(Nc1ccc(N(C)C)cc1)OCC
A498 renal
  GI50: > 100 µM
  TGI: > 100 µM
A549 NSCLC
  GI50: > 100 µM
  TGI: > 100 µM
ACHN renal
  GI50: > 100 µM
  TGI: > 100 µM
BT-549 breast
  GI50: > 100 µM
  TGI: > 100 µM
CAKI-1 renal
  GI50: > 100 µM
  TGI: > 100 µM
COLO 205 colon
  GI50: > 100 µM
  TGI: > 100 µM
DU-145 prostate
  GI50: > 100 µM
  TGI: > 100 µM
EKVX NSCLC
  GI50: > 100 µM
  TGI: > 100 µM
HCC-2998 colon
  GI50: > 100 µM
  TGI: > 100 µM
HCT-116 colon
  GI50: > 100 µM
  TGI: > 100 µM
HCT-15 colon
  GI50: > 100 µM
  TGI: > 100 µM
HOP-62 NSCLC
  GI50: > 100 µM
  TGI: > 100 µM
HOP-92 NSCLC
  GI50: > 100 µM
  TGI: > 100 µM
HS 578T breast
  GI50: > 100 µM
  TGI: > 100 µM
IGROV1 ovarian
  GI50: > 100 µM
  TGI: > 100 µM
K-562 leukemia
  GI50: > 100 µM
  TGI: > 100 µM
KM12 colon
  GI50: > 100 µM
  TGI: > 100 µM
M14 melanoma
  GI50: > 100 µM
  TGI: > 100 µM
MALME-3M melanoma
  GI50: > 100 µM
  TGI: > 100 µM
MCF7 breast
  GI50: > 100 µM
  TGI: > 100 µM
MDA-MB-231 breast
  GI50: > 100 µM
  TGI: > 100 µM
MDA-MB-435
  GI50: > 100 µM
  TGI: > 100 µM
MDA-N
  GI50: > 100 µM
  TGI: > 100 µM
MOLT-4 leukemia
  GI50: > 100 µM
  TGI: > 100 µM
NCI-H23 lung
  GI50: > 100 µM
  TGI: > 100 µM
NCI-H322M lung
  GI50: 57.9 µM
  TGI: > 100 µM
NCI-H460 lung
  GI50: > 100 µM
  TGI: > 100 µM
NCI-H522 lung
  GI50: > 100 µM
  TGI: > 100 µM
NCI/ADR-RES ovarian
  GI50: > 100 µM
  TGI: > 100 µM
OVCAR-3 ovarian
  GI50: > 100 µM
  TGI: > 100 µM
OVCAR-4 ovarian
  GI50: > 100 µM
  TGI: > 100 µM
OVCAR-5 ovarian
  GI50: > 100 µM
  TGI: > 100 µM
OVCAR-8 ovarian
  GI50: > 100 µM
  TGI: > 100 µM
PC-3 prostate
  GI50: > 100 µM
  TGI: > 100 µM
RPMI-8226 leukemia
  GI50: > 100 µM
  TGI: > 100 µM
RXF 393 renal
  GI50: > 100 µM
  TGI: > 100 µM
SF-268 CNS
  GI50: > 100 µM
  TGI: > 100 µM
SF-295 CNS
  GI50: > 100 µM
  TGI: > 100 µM
SK-MEL-2 melanoma
  GI50: > 100 µM
  TGI: > 100 µM
SK-MEL-28 melanoma
  GI50: > 100 µM
  TGI: > 100 µM
SK-MEL-5 melanoma
  GI50: > 100 µM
  TGI: > 100 µM
SK-OV-3 ovarian
  GI50: > 100 µM
  TGI: > 100 µM
SNB-19 CNS
  GI50: > 100 µM
  TGI: > 100 µM
SNB-75 CNS
  GI50: > 100 µM
  TGI: > 100 µM
TK-10 renal
  GI50: > 100 µM
  TGI: > 100 µM
U251 CNS
  GI50: > 100 µM
  TGI: > 100 µM
UACC-257 melanoma
  GI50: > 100 µM
  TGI: > 100 µM
UACC-62 melanoma
  GI50: > 100 µM
  TGI: > 100 µM
UO-31 renal
  GI50: > 100 µM
  TGI: > 100 µM
